# Experiment: Pharmacokinetics in Sprague Dawley rats after i.v. and s.c. single dose
# Conditions: rat, i.v. single dose 60 nmol/kg
substance,measurement,value
"2-(C20diacid-Trx-γGlu-Glu-OEG-OEG-Gly-Glycin amid)-ethyl-N^α1-hGH [Compound 43.0, 2-(C20diacid-Trx-γGlu-Glu-OEG-OEG-Gly-Glycin amid)-ethyl-N^α1-hGH [Q84C, Y143C]]",MRT,9.8 h
same,T1/2,7.2 h
